# scFv variants of Ab-95 (light chain) against a SARS-CoV-2 spike peptide

Antigen: PDVDLGDISGINAS, a 14-residue peptide of the SARS-CoV-2 spike HR2 region.

Each scFv is VH, a 15-residue (Gly4Ser)3 linker, VL, as in the parent Ab-95, and differs from it in the CDRs of the light chain only.
VH: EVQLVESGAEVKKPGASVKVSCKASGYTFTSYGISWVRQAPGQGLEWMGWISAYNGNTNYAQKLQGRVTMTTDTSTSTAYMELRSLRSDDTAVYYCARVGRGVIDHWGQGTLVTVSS
VL: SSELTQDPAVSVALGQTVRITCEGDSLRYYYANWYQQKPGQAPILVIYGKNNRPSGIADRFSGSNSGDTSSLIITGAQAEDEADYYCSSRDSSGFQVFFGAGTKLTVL

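The parent was found by panning a naive human phage display library on the peptide. Library AAYL52 holds single substitutions and randomly drawn double and triple substitutions in the CDRs. The scFvs were displayed on barcoded MATa yeast, the peptide on MATalpha yeast. Binding brings cells together so that they mate, and sequencing counts the barcode pairs among the diploids. Scores were corrected for input abundance and mapped to Kd with protein pairs of known affinity run in the same pool. There are three technical replicates.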

Substitutions are numbered in sequence along the VL above, starting at 1 (not Kabat). Kd is apparent (estimated from mating counts) and averaged on the log scale over replicates with a signal. Smaller is tighter. A pair that was not seen in any replicate is written "not detected"; this usually means weak binding, but a binder can also be missed. The list is sorted by this average, lowest first, undetected variants last. As a blank, each scFv also met three strains without target: over library AAYL52, 28% of these pairings were detected, typically at 8.2 µM and seldom below 800 nM. Also given: how often the same scFv was detected with the empty control strains.

| changes | Kd (apparent) | detected | control signals |
|---|---|---|---|
| Y30N/N52D/R90S | 4.0 nM | 3/3 | 0/9 |
| D25I/Y30N/P54V | 11 nM | 3/3 | 3/9 |
| Y29G/Y30R/S92G | 19 nM | 3/3 | 4/9 |
| D25H/Y30H/R90K | 40 nM | 3/3 | 2/9 |
| S26H/Y30M/S92F | 43 nM | 3/3 | 2/9 |
| S26C/Y30Q/P54C | 59 nM | 3/3 | 2/9 |
| R90F/S92C/S93I | 63 nM | 3/3 | 1/9 |
| S89A/F95N | 90 nM | 3/3 | 3/9 |
| Y30S/K50F/S93C | 100 nM | 3/3 | 2/9 |
| L27M/R28E/Y30E | 130 nM | 3/3 | 2/9 |
| D25L/Y30M/S88W | 210 nM | 3/3 | 1/9 |
| D25H/K50M/F95M | 260 nM | 3/3 | 0/9 |
| S93P/V97R | 370 nM | 3/3 | 3/9 |
| Y30E/G49Q/S88V | 380 nM | 3/3 | 1/9 |
| Y29D/N52S/S88V | 520 nM | 3/3 | 2/9 |
| Y29N/Y31W/G49E | 530 nM | 3/3 | 7/9 |
| D25E/S55T/S89M | 570 nM | 3/3 | 6/9 |
| Y30M/G49W/V97M | 590 nM | 1/3 | 4/9 |
| S88F/S92K/F98Y | 660 nM | 3/3 | 4/9 |
| R28P/F95A/Q96M | 790 nM | 3/3 | 2/9 |
| R53S/S93F/V97R | 970 nM | 3/3 | 3/9 |
| Y29H/S89P | 1.0 µM | 3/3 | 5/9 |
| N52Y/R53H/S88W | 1.1 µM | 3/3 | 7/9 |
| Y31S/N33Q/S89K | 1.1 µM | 3/3 | 2/9 |
| D25H/A32I/S55L | 1.6 µM | 1/3 | 0/9 |
| Y30G/N33Y/F98P | 1.8 µM | 2/3 | 1/9 |
| G24D/N33F/F98L | 2.1 µM | 2/3 | 1/9 |
| G24F/P54A/F95D | 2.3 µM | 3/3 | 5/9 |
| L27Q/Q96W | 2.4 µM | 3/3 | 5/9 |
| G24V/S89F/G94V | 2.6 µM | 3/3 | 5/9 |
| G49N/S89Q/R90W | 2.9 µM | 1/3 | 1/9 |
| Y30I/F98I | 2.9 µM | 1/3 | 1/9 |
| G49D/N51C/S93P | 4.0 µM | 1/3 | 6/9 |
| E23H/N33T/N51I | 4.4 µM | 3/3 | 2/9 |
| S88W/R90D/D91C | 4.5 µM | 3/3 | 0/9 |
| N51M/S92Y | 4.7 µM | 3/3 | 3/9 |
| S26H/K50E/N52D | 4.7 µM | 3/3 | 4/9 |
| Y30D/A32H/N52P | 6.2 µM | 1/3 | 1/9 |
| E23N/G24N/N52E | 7.3 µM | 2/3 | 2/9 |
| G49W/P54A/F98G | 8.4 µM | 2/3 | 4/9 |
| S26R/R28F/S89D | 9.3 µM | 1/3 | 2/9 |
| L27R/Y29V/N33P | 9.7 µM | 1/3 | 4/9 |
| D25A/S55E/R90P | 10 µM | 3/3 | 4/9 |
| N51S/S88W/F98N | 15 µM | 1/3 | 0/9 |
| N52K/R53Y/S89G | 17 µM | 1/3 | 4/9 |
| A32M/N52D/S93E | 19 µM | 1/3 | 2/9 |
| S26G/L27C/D91T | 19 µM | 1/3 | 5/9 |
| D25K/N33W/S55D | 21 µM | 1/3 | 4/9 |
| L27F/R28D/Q96L | 22 µM | 1/3 | 3/9 |
| R28C/Y29A/R90D | 22 µM | 2/3 | 2/9 |
| A32Y/F98N | 25 µM | 2/3 | 3/9 |
| R53D/P54D/D91H | 25 µM | 2/3 | 3/9 |
| D25V/G49R/F95Q | 28 µM | 2/3 | 2/9 |
| S26E/S55L/S92N | 35 µM | 1/3 | 3/9 |
| L27C/N33H/R53M | 36 µM | 1/3 | 4/9 |
| D25F/Y31A/N51P | 41 µM | 3/3 | 0/9 |
| N33E/D91A/F95W | 70 µM | 2/3 | 4/9 |
| P54W/D91I/F98L | 75 µM | 2/3 | 1/9 |
| G49N/R53G/R90A | not detected | 0/3 | 4/9 |
| G24K/D25F/S88Y | not detected | 0/3 | 2/9 |
| G49C/R53L/S88T | not detected | 0/3 | 0/9 |
| F95G/V97K | not detected | 0/3 | 1/9 |
| L27P/R90L/F98N | not detected | 0/3 | 1/9 |
| Y29W/G49K/R90F | not detected | 0/3 | 3/9 |
| G24Q/G49N/F98V | not detected | 0/3 | 0/9 |
| G49W/S89L/R90L | not detected | 0/3 | 1/9 |

In this assay the parent's reference entry averaged 200 nM; its copy inside this library read 180 nM.

Source: Engelhart et al. 2022 (doi:10.1038/s41597-022-01779-4), MIT Lincoln Laboratory and A-Alpha Bio; data file from the FLAb repository.